From patent US20170000889A1, “STABLE BROMFENAC OPHTHALMIC SOLUTION” (SENTISS PHARMA PRIVATE LIMITED, priority 2013, published 2017)

Assay: Haziness of citrate-buffered bromfenac formulation on addition of BKC, effect of surfactants
Assay type: physicochemical
Details: surfactant added to citrate-buffered bromfenac solution with benzalkonium chloride
Experimental: In yet other embodiment of the present invention, citrate buffer is used instead of borate buffer but when benzalkonium chloride (BKC) was added in the citrate formulation it causes haziness of the formulation.
The inventors of the present invention extensively studied how to overcome the haziness occurred during the addition of BKC.

Question: Which “Haziness after addition of BKC to the citrate formulation” value does the source give for “Vitamin E Polyethylene Glycol Succinate [Kolliphor® TPGS]” here?
Answer: removed haziness
